Source: patent US6124328A, “Methods and compositions for stimulating neurite growth” (Vertex Pharmaceuticals Incorporated, priority 1997, dated 2000)

By UniProt entry, the sequences of proteins in these tests, tags left out.
UniProt P62942, whole entry: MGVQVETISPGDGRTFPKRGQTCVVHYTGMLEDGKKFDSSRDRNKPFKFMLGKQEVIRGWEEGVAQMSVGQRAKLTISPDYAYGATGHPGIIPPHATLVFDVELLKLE

Biological target: FKBP12 (Homo sapiens, UniProt P62942)
Assay: FKBP12 Binding Assay: inhibition of FKBP rotomase activity (cis-N-succinyl-Ala-Ala-Pro-Phe-p-nitroanilide / chymotrypsin), apparent Ki
Format: biochemical
Conditions: Table 2, formula II', compound 0.1 nM-10 μM
From the text: Preferably, the assay measures inhibition of FKBP12 rotomase activity. Such an assay has also been described by M. W. Harding et al., supra and by J. J. Siekierka et al., supra. In this assay the isomerization of an artificial substrate--N-succinyl-Ala-Ala-Pro-Phe-p-nitroanilide--is followed spectrophotometrically. The assay includes the cis form of the substrate, FKBP12, the inhibitor and chymotrypsin. Chymotrypsin is able to cleave p-nitroanilide from the trans form of the substrate, but not the cis form. Release of p-nitroanilide is measured.
In this assay various quantities of FKBP12 binding compound (0.1 nM-10 μM) were added to cis-N-succinyl-Ala-Ala-Pro-Phe-p-nitroanilide in the presence of FKBP12 and chymotrypsin. FKBP12 converts the cis form of the substrate to the trans form. This allows chymotrypsin to cleave p-nitroanilide from the substrate. Release of p-nitroanilide was measured spectrophotometrically.

Q: `COc1cc(C(=O)C(=O)N2CCCC[C@H]2C(=O)OC(CCCc2ccccc2)CCCc2cccnc2)cc(OC)c1OC` (stereo partly shown) [compound 9] was tested. Which Ki did it give?
A: Its Ki is 0.5 nM.
